This passage reports IC50 results from patent US11578058B2, “Heterocyclic compounds for inhibiting TYK2 activities” (Beijing InnoCare Pharma Tech Co., Ltd., priority 2020, dated 2023).

The chains behind the UniProt entries cited, without tags or fusion partners. Residues count along the entry.
UniProt O60674, 849-1124: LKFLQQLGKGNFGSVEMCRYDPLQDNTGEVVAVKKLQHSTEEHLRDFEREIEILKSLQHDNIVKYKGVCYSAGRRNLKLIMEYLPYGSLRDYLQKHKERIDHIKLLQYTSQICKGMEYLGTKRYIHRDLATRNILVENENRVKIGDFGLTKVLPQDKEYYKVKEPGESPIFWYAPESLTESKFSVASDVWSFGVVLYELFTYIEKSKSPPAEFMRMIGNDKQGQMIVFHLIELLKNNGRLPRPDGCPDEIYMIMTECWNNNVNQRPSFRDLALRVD

As a reminder, the IC50 is the concentration at which inhibition is half-maximal.

The target in this experiment is human recombinant JAK2 kinase domain (JH1) (Homo sapiens (Human), UniProt O60674). Kind of experiment: JAK2 kinase domain enzymatic activity assay (HTRF). It is filed as biochemical. Particulars: 2.5 μM ATP in substrate solution. On the technique in general: TR-FRET usually uses a lanthanide donor and a delayed reading to cut background.

Turning to `[2H]C([2H])([2H])NC(=O)c1nnc(NC(=O)C2CC2)cc1Nc1cccc(-c2ncn(C([2H])([2H])[2H])n2)c1OC` [Compound 1, 6-(cyclopropanecarboxamido)-4-((2-methoxy-3-(1-(methyl-d3)-1H-1,2,4-triazol-3-yl)phenyl)amino)-N-(methyl-d3)pyridazine-3-carboxamide], the IC50 turned out to be 2.3 µM.

Turning to `[2H]C([2H])([2H])n1cnc(-c2cccc(Nc3cc(NC(=O)C4CC4)nnc3C(=O)NC)c2OC)n1` [Compound 2, 6-(cyclopropanecarboxamido)-4-((2-methoxy-3-(1-(methyl-d3)-1H-1,2,4-triazol-3-yl)phenyl)amino)-N-methylpyridazine-3-carboxamide], the IC50 came out at 2.2 µM.

As to `[2H]C([2H])([2H])NC(=O)c1nnc(NC(=O)C2CC2)cc1Nc1cccc(-c2ncn(C)n2)c1OC([2H])([2H])[2H]` [Compound 4, 6-(cyclopropanecarboxamido)-4-((2-(methoxy-d3)-3-(1-methyl-1H-1,2,4-triazol-3-yl)phenyl)amino)-N-(methyl-d3)pyridazine-3-carboxamide], the IC50 was 2.3 µM.
